Tested on: bacterial cells (salmonella typhimurium TM677)
Details: salmonella typhimurium tm677, 0 h, 200 µM

Substance: dichlorobis (ethylenediamine) rhodium (III) [Compound 3]
- N/No (toxicity): 1
